# Results published in patent US20240058464A1, “COMBINATION THERAPY WITH FOR46 FOR CANCER” (Fortis Therapeutics, Inc., priority 2021, published 2024).
# Experiments:
# CD46 expression [1] = test: CD46 expression by RNA-sequencing in unpaired pre-treatment and post-treatment tumor biopsies; format: in vivo, human; conditions: for CD46 expression Post: post-treatment biopsies, unpaired, RNA-seq log2-transformed normalized counts; for CD46 expression diff: Post minus Pre, unpaired biopsies, log2-transformed counts; for CD46 expression Percentage change: post- vs pre-treatment unpaired biopsies
# CD46 expression [2] = test: CD46 expression by RNA-sequencing in paired tumor biopsies before and after therapy; conditions: for CD46 expression, Post-Treatment Biopsy / CD46 expression, Pre-Treatment Biopsy: RNA-seq log2-transformed counts;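 on all read-outs here: FFPE human tumor biopsies, exome-capture RNA-seq, reads aligned to GRCh37, counts normalized for GC content, length and depth, summed per gene, log2-transformed, samples paired before versus after therapy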
# [3] = Head and Neck Squamous Cell Carcinoma
molecule,measurement,setting,value
CO[C@H]1C(=O)[C@]2(C)[C@@H](OC)C[C@H]3OC[C@@]3(OC(C)=O)[C@H]2[C@H](OC(=O)c2ccccc2)[C@]2(O)C[C@H](OC(=O)[C@H](O)[C@@H](NC(=O)OC(C)(C)C)c3ccccc3)C(C)=C1C2(C)C [cabazitaxel],CD46 expression Post,CD46 expression [1]; Prostate Cancer,6.13
C=CC(=O)Nc1cc(Nc2nccc(-c3cn(C)c4ccccc34)n2)c(OC)cc1N(C)CCN(C)C [osimertinib],"CD46 expression, Post-Treatment Biopsy",CD46 expression [2]; Non-Small Cell Lung Cancer,6.25
C[C@]12C=CC(=O)C=C1CC[C@@H]1[C@@H]2C(=O)C[C@@]2(C)[C@H]1CC[C@]2(O)C(=O)CO [prednisone],CD46 expression Post,CD46 expression [1]; Non-Small Cell Lung Cancer,6.13
cetuximab,CD46 expression diff,CD46 expression [1]; Colorectal Cancer,0.31
same,CD46 expression Percentage change,CD46 expression [1]; Colorectal Cancer,5.0%
same,CD46 expression Post,CD46 expression [1]; Colorectal Cancer,6.53
same,CD46 expression diff,CD46 expression [1]; [3],0.23
same,CD46 expression Percentage change,CD46 expression [1]; [3],4.2%
same,CD46 expression Post,CD46 expression [1]; [3],5.78
same,Percent Change in CD46 expression,CD46 expression [2]; Colorectal Cancer,1.7%
same,"CD46 expression, Post-Treatment Biopsy",CD46 expression [2]; Colorectal Cancer,6.13
same,"CD46 expression, Pre-Treatment Biopsy",CD46 expression [2]; Colorectal Cancer,6.03
trastuzumab,CD46 expression diff,CD46 expression [1]; Breast Cancer,−0.03
same,CD46 expression Percentage change,CD46 expression [1]; Breast Cancer,−0.6%
same,CD46 expression Post,CD46 expression [1]; Breast Cancer,6.25
same,CD46 expression diff,CD46 expression [1]; Esophageal Cancer,0.24
same,CD46 expression Percentage change,CD46 expression [1]; Esophageal Cancer,4.0%
same,CD46 expression Post,CD46 expression [1]; Esophageal Cancer,6.13
same,CD46 expression diff (post minus pre),CD46 expression [2]; Breast Cancer,0.25
same,Percent Change in CD46 expression,CD46 expression [2]; Breast Cancer,4.2%
same,"CD46 expression, Post-Treatment Biopsy",CD46 expression [2]; Breast Cancer,6.31
same,"CD46 expression, Pre-Treatment Biopsy",CD46 expression [2]; Breast Cancer,6.05
